# In PubChem BioAssay AID588850 (Sanford-Burnham Center for Chemical Genomics, 2011):
# The entries are a selection whose mix differs from that of the whole data set. Some results for these compounds are left out of this collection, so the calls shown say nothing about other tests. The source made the active and inactive calls.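 How the source made its calls: active means at least 50% inhibition at 5 µM, scaled per plate between neutral and stimulator controls; inactive means the rest.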
# Test: inhibitors of PAF-induced NF-kB signaling, primary screen, cell-based, GFP fluorescence, uHTS (AID 588850);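 further: PAF is a Pseudomonas aeruginosa culture filtrate used as stimulus; plate controls were PAF-stimulated DMSO wells for no effect and unstimulated DMSO wells for full effect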
# Details: KKLEB NF-kB-GFP reporter, GFP fluorescence overnight, at 5 µM, hits give high values
row,SMILES,inhibition
1,COc1cc(C(=O)NCC2(N(C)C)CCCCC2)c([N+](=O)[O-])cc1OC,inactive: 1.3%
2,CN(C)C1(CNC(=O)c2ccc(Br)cc2)CCCCC1,inactive: -6.3%
3,O=C(NCC1(N2CCCCC2)CCCCC1)c1cccc(Cl)c1,inactive: -12.6%
4,COc1ccc(Cl)cc1C(=O)NCC1(N(C)C)CCCCC1,inactive: 4.9%
5,COc1cccc(C(=O)NCC2(N3CCCCC3)CCCCC2)c1,inactive: -4.3%
6,O=C(OC1CN2CCC1CC2)C(CO)(c1ccccc1)c1ccccc1 (stereo unspecified),inactive: 5.3%
7,O=C(OCCN1CCCC1)C(O)(c1ccccc1)c1ccccc1,inactive: 6.2%
8,CC(C)Oc1ccc(C(=O)NCC2(N(C)C)CCCCC2)cc1,inactive: -1%
9,CN(C)c1cccc(C(=O)NCC2(N(C)C)CCCCC2)c1,inactive: -8.4%
10,C=C(C)C#CC(O)(C(=O)OC1CCN(C)CC1)c1ccccc1 (stereo unspecified),inactive: -4.6%
11,COc1ccc(Br)c(C(=O)NCC2(N3CCCCC3)CCCCC2)c1,inactive: -5.1%
12,CN1[C@@H]2CC[C@H]1CC(OC(=O)C(O)(c1ccccc1)c1ccccc1)C2 (stereo partly specified),inactive: -16.6%
13,O=C(NCC1(N2CCCCC2)CCCCC1)c1cc([N+](=O)[O-])ccc1Cl,inactive: -1.1%
14,Cc1ccc(C(=O)NCC2(N3CCCCC3)CCCCC2)cc1,inactive: 4.6%
15,COc1cc(SC)ccc1C(=O)NCC1(N(C)C)CCCCC1,inactive: -14.8%
16,CCN(CC)CC(C)C(C)OC(=O)C(O)(c1ccccc1)c1ccccc1 (stereo unspecified),inactive: 11.6%
17,CC(C)N1C(=O)CC2(CCN(CCOC(=O)C(O)(c3ccccc3)c3ccccc3)CC2)C1=O,inactive: -7.4%
18,CN(C)c1ccc(C(=O)NCC2(N(C)C)CCCCC2)cc1,inactive: 3.1%
19,CN(C)C1CCCC1OC(=O)C(O)(c1ccccc1)c1ccccc1 (stereo unspecified),inactive: -6.5%
20,Cc1ccccc1C(=O)NCC1(N2CCCCC2)CCCCC1,inactive: 10.6%
21,COc1ccc(C(=O)NCC2(N(C)C)CCCCC2)cc1,inactive: -18.1%
22,O=C(NCC1(N2CCCCC2)CCCCC1)c1cccc(Br)c1,inactive: 8.6%
23,CCN1CCCC(OC(=O)C2(O)c3ccccc3C=Cc3ccccc32)C1 (stereo unspecified),inactive: 4.6%
24,Cc1cc(C(=O)NCC2(N3CCCCC3)CCCCC2)ccc1[N+](=O)[O-],inactive: 0.1%
25,O=C(NCC1(N2CCCCC2)CCCCC1)c1cc(F)c(F)cc1Cl,inactive: 6.7%
26,C=CCN1CCN(CCOC(=O)C(O)(c2ccccc2)c2ccccc2)CC1,inactive: -10.7%
